In test [1] the target is hClpP (Homo sapiens, UniProt Q16740). In words: hClpP binding to compound immobilized on Sepharose beads and competition, HELA cell lysates, Western blot.
For test [2], the target named is recombinant human caseinolytic peptidase hClpP (Homo sapiens, UniProt Q16740). In words: hClpP peptide hydrolysis assay (coumarin release from Ac-WLA-AMC). Particulars: purified hClpP.
For test [3], the system named is ClpX and TUFM. In words: ClpX and TUFM protein levels by Western blot in SUM159 cells. Particulars: Western blots, concentration response and time course. (Immunoblotting shows a protein as a band on a membrane.)

The chains behind the UniProt entries cited, without tags or fusion partners. Residues count along the entry.
UniProt Q16740, 57-277 limits assumed: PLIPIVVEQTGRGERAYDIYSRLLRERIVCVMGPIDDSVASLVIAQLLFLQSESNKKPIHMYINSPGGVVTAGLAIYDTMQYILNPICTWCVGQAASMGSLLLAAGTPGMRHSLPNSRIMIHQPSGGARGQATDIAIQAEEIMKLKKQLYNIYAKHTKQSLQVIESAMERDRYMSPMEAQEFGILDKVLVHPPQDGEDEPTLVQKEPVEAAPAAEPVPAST

`N#Cc1cccc(CN2CCc3c(c(=O)n(Cc4ccc(C(F)(F)F)cc4)c(=O)n3CCCCN)C2)c1`: in test [1], the “hClpP binding to compound coupled to Sepharose beads” value (“hClpP binding to compound coupled” below) is on record as “hClpP directly binds”.

Take `N#Cc1cccc(CN2CCC3=C(C2)C(=O)N(Cc2ccc(C(F)(F)F)cc2)C2=NCCCN23)c1`: the “Dose-dependency of hClpP activation” value in test [2] is recorded as “Dose-dependent increases in hClpP activity”.

Take `Cc1ccccc1CN1C(=O)C2=C(CCN(Cc3ccccc3)C2)N2CCN=C12`: the “ClpX and TUFM protein” value in test [3] is “reduction of the protein ClpX and TUFM”. For the compound `N#Cc1cccc(CC2CCC3=C(C2)C(=O)N(Cc2ccc(Cl)cc2)C2=NCCN23)c1` (centres unmarked), the “Dose-dependency of hClpP activation” value in test [2] is “Dose-dependent increases in hClpP activity”. For the compound `N#Cc1cccc(CN2CCc3c(c(=O)n(Cc4ccc(Cl)cc4)c(=O)n3CCCCN)C2)c1`, the “hClpP binding to compound coupled” value in test [1] was “hClpP directly binds”. For the compound `N#Cc1cccc(CC2CCC3=C(C2)C(=O)N(Cc2ccc(C(F)(F)F)cc2)C2=NCCN23)c1` (centres unmarked), the “Dose-dependency of hClpP activation” value in test [2] is reported as “Dose-dependent increases in hClpP activity”. With `N#Cc1cccc(CN2CCc3c(c(=O)n(Cc4ccc(C(F)(F)F)cc4)c(=O)n3CCCN)C2)c1`, in test [2], the “Dose-dependency of hClpP activation” value was “dose-dependent increases in hClpP activity”. The “hClpP binding to compound coupled” value in test [1] was “hClpP directly binds”.
